{"source": "ChEMBL document CHEMBL1157700", "about": "“Synthesis of 3-[(N-carboalkoxy)ethylamino]-indazole-dione derivatives and their biological activities on human liver carbonyl reductase” (Bioorg Med Chem, 2010)", "proteins": {"B1": {"name": "Carbonyl reductase [NADPH] 1 (Homo sapiens), P16152 (protein)", "chain": "MSSGIHVALVTGGNKGIGLAIVRDLCRLFSGDVVLTARDVTRGQAAVQQLQAEGLSPRFHQLDIDDLQSIRALRDFLRKEYGGLDVLVNNAGIAFKVADPTPFHIQAEVTMKTNFFGTRDVCTELLPLIKPQGRVVNVSSIMSVRALKSCSPELQQKFRSETITEEELVGLMNKFVEDTKKGVHQKEGWPSSAYGVTKIGVTVLSRIHARKLSEQRKGDKILLNACCPGWVRTDMAGPKATKSPEEGAETPVYLALLPPDAEGPHGQFVSEKRVEQW"}}, "conditions_in_all_cases": "Homo sapiens", "key": {"[1]": {"substrate": "COC(=O)NCCc1n[nH]c2c1C(=O)C=C(C)C2=O"}, "[2]": {"substrate": "COC(=O)NCCc1n[nH]c2c1C(=O)c1ccccc1C2=O"}, "[3]": {"substrate": "COC1=CC(=O)c2c(CCNC(=O)OCc3ccccc3)n[nH]c2C1=O"}, "[4]": {"substrate": "COC(=O)NCCc1n[nH]c2c1C(=O)C=C(Nc1ccc(C)cc1)C2=O"}, "[5]": {"substrate": "COC(=O)NCCc1n[nH]c2c1C(=O)C=C(Nc1ccccc1)C2=O"}, "[6]": {"substrate": "COC(=O)NCCc1n[nH]c2c1C(=O)C=C(OC)C2=O"}, "[7]": {"substrate": "COC(=O)NCCc1n[nH]c2c1C(=O)C=C(Nc1ccc(OC)cc1)C2=O"}, "[8]": {"substrate": "COC(=O)NCCc1n[nH]c2c1C(=O)C=C(Nc1ccccc1OC)C2=O"}}}
{"protein": "B1", "values": [{"measurement": "kcat/Km", "setting": "[1]", "value": 5600, "unit": "M⁻¹ s⁻¹"}, {"measurement": "kcat/Km", "setting": "[2]", "value": 8200, "unit": "M⁻¹ s⁻¹"}, {"measurement": "kcat/Km", "setting": "[3]", "value": 87000, "unit": "M⁻¹ s⁻¹"}, {"measurement": "kcat/Km", "setting": "[4]", "value": 12000, "unit": "M⁻¹ s⁻¹"}, {"measurement": "kcat/Km", "setting": "[5]", "value": 4800, "unit": "M⁻¹ s⁻¹"}, {"measurement": "kcat/Km", "setting": "[6]", "value": 170000, "unit": "M⁻¹ s⁻¹"}, {"measurement": "kcat/Km", "setting": "[7]", "value": 5100, "unit": "M⁻¹ s⁻¹"}, {"measurement": "kcat/Km", "setting": "[8]", "value": 3000, "unit": "M⁻¹ s⁻¹"}]}
